Values quoted from earlier work in article PMC5812989, “Evaluation of HER2-specific peptide ligand for its employment as radiolabeled imaging probe” (Scientific Reports, 2018).

Details: 24 h after injection; murine models; cited from earlier work

For “^111In-labeled trastuzumab Fab fragments: 111In-labeled Fab fragments of the anti-HER2 antibody trastuzumab”, the renal uptake is given as 53.0 ± 15.94 %ID/g.
